Earlier results, collected in patent US6340709B1, “Use of matrix metalloproteinase inhibitors for treating neurological disorders and promoting wound healing” (Warner-Lambert Company, priority 1996, dated 2002).

Amino acid sequences for entries named in this document (tags omitted). Residues count along the entry.
UniProt P08254, 100-477, species assumed: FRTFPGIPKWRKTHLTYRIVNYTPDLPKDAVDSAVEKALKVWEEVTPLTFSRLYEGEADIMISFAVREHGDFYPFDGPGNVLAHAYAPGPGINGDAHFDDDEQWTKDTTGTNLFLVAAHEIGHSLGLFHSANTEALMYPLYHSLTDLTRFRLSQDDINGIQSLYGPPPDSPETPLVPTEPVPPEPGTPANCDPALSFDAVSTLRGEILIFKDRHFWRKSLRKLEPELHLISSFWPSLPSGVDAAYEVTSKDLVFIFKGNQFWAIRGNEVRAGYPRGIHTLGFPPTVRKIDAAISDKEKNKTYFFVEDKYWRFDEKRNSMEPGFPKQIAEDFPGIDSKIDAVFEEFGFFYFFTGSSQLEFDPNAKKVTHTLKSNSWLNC

Target: MMP-3 (Homo sapiens, UniProt P08254)
Settings: cited from earlier work

Compound: CCCCCCCCCCCCCCCC[C@H](CC(=O)O)C(=O)N[C@@H](Cc1ccccc1)C(=O)NC [Compound 12]
- MMP-3 % @ 100 μM: 10% @
